Biological target: T1, Mevalonate kinase (Streptococcus pneumoniae serotype 2 (strain D39 / NCTC 7466), UniProt A0A0H2ZQX9)
T1 sequence (A0A0H2ZQX9 whole entry): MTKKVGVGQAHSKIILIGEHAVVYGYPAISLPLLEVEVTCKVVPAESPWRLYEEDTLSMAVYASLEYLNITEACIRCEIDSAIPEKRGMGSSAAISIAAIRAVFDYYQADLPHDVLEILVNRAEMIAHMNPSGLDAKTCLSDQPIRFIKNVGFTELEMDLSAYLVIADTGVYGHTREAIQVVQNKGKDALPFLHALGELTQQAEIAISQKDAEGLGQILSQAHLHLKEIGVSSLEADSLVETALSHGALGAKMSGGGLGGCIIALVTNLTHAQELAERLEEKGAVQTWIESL

Row | Structure (SMILES) | IC50
1 | O=C(O)c1cc2ccccc2c(Cc2c(O)c(C(=O)O)cc3ccccc23)c1O [MLS000028605] | 511 nM
2 | O=c1c2ccccc2[se]n1-c1ccccc1 [2-Phenyl-benzo[d]isoselenazol-3-one] | 670 nM
